According to ChEMBL document CHEMBL1130988, “Antiinflammatory 2-benzyl-4-sulfonyl-4H-isoquinoline-1,3-diones: novel inhibitors of COX-2” (Bioorg Med Chem Lett, 1998):

Molecular target: Prostaglandin G/H synthase 2 (Homo sapiens) (UniProt P35354)
Experiment: Inhibitory activity against cyclooxygenase-2 (COX-2) in cell assay using stably transfected Cos-A2 CELLS at dose 1 ug/mL
Conditions: Cercopithecidae

- inhibition: 54%
SMILES: CC(C)S(=O)(=O)c1c(O)n(Cc2ccc(F)c(F)c2)c(=O)c2ccccc12
